Ab-91 heavy chain CDR variants: yeast mating affinities

Data: MIT Lincoln Laboratory AlphaSeq set, Engelhart et al. 2022, doi:10.1038/s41597-022-01779-4, as distributed in FLAb.

Binding partner: SARS-CoV-2 spike HR2 peptide, sequence PDVDLGDISGINAS.

Ab-91 is the parent antibody, in scFv form: VL, then the linker GGGGSGGGGSGGGGS, then VH. The light chain is unchanged in all variants.
VL: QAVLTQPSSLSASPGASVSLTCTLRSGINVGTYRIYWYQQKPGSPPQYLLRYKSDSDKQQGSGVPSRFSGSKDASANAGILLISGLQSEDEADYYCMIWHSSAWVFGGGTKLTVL
VH: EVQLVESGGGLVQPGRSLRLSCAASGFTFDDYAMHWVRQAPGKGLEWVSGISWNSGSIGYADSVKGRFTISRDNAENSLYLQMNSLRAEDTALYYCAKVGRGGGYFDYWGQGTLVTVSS

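The parent was found by panning a naive human phage display library on the peptide. Library AAYL51 holds single substitutions and randomly drawn double and triple substitutions in the CDRs. Affinity was read by AlphaSeq, a pooled yeast mating assay with surface-displayed partners. The frequency of each diploid, read from paired DNA barcodes, reflects how well the two displayed proteins bind. The ratio of observed to expected reads was calibrated, replicate by replicate, on BCL2-family standards whose Kd was known from biolayer interferometry. The assay was run in three technical replicates.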

Changes read parent residue, position, new residue, counted from the first residue of the VH shown. The Kd shown is the geometric mean over detected replicates; a lower Kd is a better binder. An entry "nd" has no value in the source: the pair was not observed among the diploids in any replicate. This suggests poor binding but is not conclusive. For reference, the parent read 72 nM as the reference entry and 7.5 nM as a member of this library. Three control strains display no target. For library AAYL51, 21% of the pairings with them gave a signal, with a median of 34 µM and one signal in twenty below 1.8 µM, so weak values seen in few replicates may be background.

{"changes": "A33Q W53T S57C", "Kd (apparent)": "71 µM", "detected": "1 of 3"}
{"changes": "M34Q W53N I58P", "Kd (apparent)": "140 µM", "detected": "2 of 3"}
{"changes": "F27D M34F V64P", "Kd (apparent)": "30 µM", "detected": "1 of 3"}
{"changes": "A33K G50C G104K", "Kd (apparent)": "17 µM", "detected": "2 of 3"}
{"changes": "A33I R101N D107M", "Kd (apparent)": "nd", "detected": "0 of 3"}
{"changes": "T28A G59Q A61Y", "Kd (apparent)": "nd", "detected": "0 of 3"}
{"changes": "Y32W G50I I58H", "Kd (apparent)": "7.0 µM", "detected": "1 of 3"}
{"changes": "S52W N54C G102Q", "Kd (apparent)": "nd", "detected": "0 of 3"}
{"changes": "N54D A61E R101K", "Kd (apparent)": "450 µM", "detected": "1 of 3"}
{"changes": "D31K S57N F106M", "Kd (apparent)": "1.7 µM", "detected": "3 of 3"}
{"changes": "S55G S63P G100S", "Kd (apparent)": "4.9 µM", "detected": "1 of 3"}
{"changes": "S52T I58V D107F", "Kd (apparent)": "140 µM", "detected": "2 of 3"}
{"changes": "D62M Y105R", "Kd (apparent)": "nd", "detected": "0 of 3"}
{"changes": "Y32K G100A G104M", "Kd (apparent)": "41 µM", "detected": "3 of 3"}
{"changes": "F29K G56I", "Kd (apparent)": "nd", "detected": "0 of 3"}
{"changes": "A33N S57Y V64Y", "Kd (apparent)": "96 µM", "detected": "3 of 3"}
{"changes": "G50T G59D Y60K", "Kd (apparent)": "nd", "detected": "0 of 3"}
{"changes": "G50I G59H K65T", "Kd (apparent)": "31 µM", "detected": "1 of 3"}
{"changes": "S57V G59E D107S", "Kd (apparent)": "160 µM", "detected": "3 of 3"}
{"changes": "N54P A61Q", "Kd (apparent)": "48 µM", "detected": "2 of 3"}
{"changes": "A33S W53V K65G", "Kd (apparent)": "2.4 µM", "detected": "1 of 3"}
{"changes": "D30F D62N G104I", "Kd (apparent)": "nd", "detected": "0 of 3"}
{"changes": "D31F G59K R101C", "Kd (apparent)": "nd", "detected": "0 of 3"}

Top 3 of the variants detected in all replicates, tightest first:

changes	Kd (apparent)	detected
D31K S57N F106M	1.7 µM	3 of 3
Y32K G100A G104M	41 µM	3 of 3
A33N S57Y V64Y	96 µM	3 of 3